Measured values published in PubChem BioAssay AID504651 (National Center for Advancing Translational Sciences (NCATS), 2011).
This is a selection; strong and weak results do not stand in their true shares. Some salts or complexes appear as unconnected parts, following the source record. Active and inactive are the calls of the source. Cut-off read from the data, not from the text of the source: active = potentiation above about 30%; inactive = the rest.
Note: 0% is about no effect.

The chains behind the UniProt entries cited, without tags or fusion partners.
UniProt P21728, whole entry: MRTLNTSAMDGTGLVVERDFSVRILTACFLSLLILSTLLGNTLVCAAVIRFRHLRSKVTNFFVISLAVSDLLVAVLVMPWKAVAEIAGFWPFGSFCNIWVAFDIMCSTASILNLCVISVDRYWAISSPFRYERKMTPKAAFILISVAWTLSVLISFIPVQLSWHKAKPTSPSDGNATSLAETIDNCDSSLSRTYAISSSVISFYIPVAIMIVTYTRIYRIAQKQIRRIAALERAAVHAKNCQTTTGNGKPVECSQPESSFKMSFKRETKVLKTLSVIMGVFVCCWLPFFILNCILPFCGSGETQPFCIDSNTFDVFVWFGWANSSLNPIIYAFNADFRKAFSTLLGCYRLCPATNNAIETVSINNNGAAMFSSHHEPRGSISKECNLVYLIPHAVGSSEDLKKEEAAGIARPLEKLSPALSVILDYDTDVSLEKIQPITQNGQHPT

Each compound was assayed against D(1A) dopamine receptor (Homo sapiens) (UniProt P21728) (assay: Potentiators of Human D1 Dopamine Receptor: qHTS). Settings: HEK293 TREx D1 cells, calcium flux, dopamine EC20 potentiation; at 10 µM; stronger effect = higher value.
Description: Dopamine receptors (DARs) are involved in the etiology and/or therapy of a number of neuropsychiatric and endocrine disorders. For instance, all receptor-based antiparkinsonian drugs work via stimulating the D1 DAR subtype whereas all FDA-approved antipsychotic agents are antagonists of this receptor. […] There are three different types of allosteric modulators that we are seeking, two of which will stimulate or augment receptor signaling, allosteric agonists and potentiators, while the third, allosteric antagonists, will attenuate receptor signaling. The present primary screening assay measures compound potentiation of an EC20 dopamine response by tracking calcium flux in a […], inducible Hek293 Trex D1 cell line.
NIH Chemical Genomics Center [NCGC]
NIH Molecular Libraries Probe Centers Network [MLPCN]
Assay Submitter (PI): David Sibley
Freshly passaged cells are plated in 1536 well black, clear bottom plates at a density of 4000 cells/well in 3 ul of complete media containing 1x tetracycline inducer. After an overnight incubation at 30 C in 5% CO2, cells are loaded with 2 ul of the no wash Calcium Assay Kit (ABD Bioquest) and incubated at room temperature for 30 to 90 minutes. A 10 cycle (1 second/cycle) baseline measurement is taken and then the FDSS online 1536 pintool delivers 23 nl of compound library (as well as dopamine controls) to the plate. The plate is measured for kinetically at 1 cycle/sec for 180 seconds and is considered to be the agonist portion of the assay (eg, compounds which activate a positive calcium response during this portion are flagged as potential agonists). Following the 180 second read, 1 ul of an EC20 of dopamine is delivered by an onboard pipette head. Measurements are taken kinetically for an additional 180 seconds.
With `CCOC(=O)N1CCC(Nc2cccc(C)c2)CC1` the potentiation was inactive: -2.75%.
`COc1cc(C(=O)NCC2(N(C)C)CCCCC2)ccc1OC(F)F` was tested, and the potentiation was inactive: -0.713%.
In the case of `Cc1ccc(OCC(C)C)c(CN(CCCl)CCCl)c1`, the potentiation is reported as inactive: -1.5%.
With `CCOc1ccc(C)cc1CN(CCCl)CCCl` the potentiation was inactive: 2.05%.
For `O=C(NCC1(N2CCOCC2)CCCCC1)c1ccc(Cl)cc1`, the potentiation was inactive: 0.2%.
For `CCCCOc1ccc(C(=O)NCC2(N3CCOCC3)CCCCC2)cc1`, the potentiation was inactive: -8.05%.
With `O=C(NCC1(N2CCCCC2)CCCCC1)c1ccc(F)cc1` the potentiation was inactive: -9.7%.
In the case of `COc1ccc(NC2CCN(CCc3ccccc3)CC2)c(OC)c1`, the potentiation is reported as inactive: 3.45%.
In the case of `CCOC(=O)N1CCC(Nc2ccc(F)cc2)CC1`, the potentiation is reported as inactive: -0.6%.
In the case of `COc1ccccc1C(=O)NCC1(N2CCOCC2)CCCCC1`, the potentiation is reported as inactive: 0.1%.
For `O=C(NCC1(N2CCOCC2)CCCCC1)c1cc2ccccc2o1`, the potentiation was inactive: -3.6%.
With `O=C(NCC1(N2CCCCC2)CCCCC1)c1ccc(Cl)nc1` the potentiation was inactive: -1.55%.
For `Cc1cc(C)cc(N(C(=O)c2ccccc2)C2CCN(C(=O)OC(C)(C)C)CC2)c1`, the potentiation was inactive: 1.27%.
For `CCOC(=O)N1CCC(Nc2ccc(OC)cc2)CC1`, the potentiation was inactive: -4.65%.
For `N#CC1(Nc2ccccc2)CCN(Cc2ccccc2)CC1`, the potentiation was inactive: 4.25%.
For `O=C(OC1CN2CCC1CC2)C1c2ccccc2Oc2ccccc21` (configuration not stated), the potentiation was inactive: 0.105%.
`COc1ccc(Cl)cc1C(=O)NCC1(N2CCOCC2)CCCCC1` was tested, and the potentiation was inactive: 2.32%.
In the case of `O=C(NCC1(N2CCCCC2)CCCCC1)c1ccc(=O)[nH]c1`, the potentiation is reported as inactive: -0.65%.
For `O=C(NCC1(N2CCCCC2)CCCCC1)c1cccs1`, the potentiation was inactive: -3.5%.
`COc1ccc(C(=O)NCC2(N3CCCCC3)CCCCC2)cc1` was tested, and the potentiation was inactive: 0.95%.
In the case of `COc1ccc(C(=O)NCC2(N3CCCCC3)CCCCC2)c(OC)c1OC`, the potentiation is reported as inactive: -4%.
`CC(C)(C)OC(=O)N1CCC(N(C(=O)c2ccccc2)c2ccc(F)cc2)CC1` was tested, and the potentiation was inactive: -3.1%.
For `CSc1ccccc1C(=O)NCC1(N2CCCCC2)CCCCC1`, the potentiation was inactive: 0.25%.
For `COc1ccc2c(c1O)-c1c(O)c(OC)cc3c1[C@H](C2)[N+](C)(C)CC3.O=[N+]([O-])c1cc([N+](=O)[O-])c([O-])c([N+](=O)[O-])c1[O-]`, the potentiation was inactive: 3.25%.
In the case of `O=C(OC1CN2CCC1CC2)c1ccc([N+](=O)[O-])cc1` (configuration not stated), the potentiation is reported as inactive: -0.35%.
`CCCCOc1ccccc1C(=O)NCC1(N2CCOCC2)CCCCC1` was tested, and the potentiation was inactive: 1.95%.
With `O=C(NCC1(N2CCOCC2)CCCCC1)c1ccccc1Br` the potentiation was inactive: 0.7%.
In the case of `CCCOc1ccc(C(=O)NCC2(N(C)C)CCCCC2)cc1OC`, the potentiation is reported as inactive: 1.54%.
In the case of `COc1ccc(CN(CCCl)CCCl)cc1Cl`, the potentiation is reported as inactive: -2.25%.
`O=[N+]([O-])c1cc([N+](=O)[O-])c(OC2CCCCC2O)c([N+](=O)[O-])c1` (configuration not stated) was tested, and the potentiation was inactive: -7.4%.
With `CN(C)c1cccc(C(=O)NCC2(N3CCCCC3)CCCCC2)c1` the potentiation was inactive: -1.65%.
`CC(C)c1ccc(NC2CCN(C(=O)OC(C)(C)C)CC2)cc1` was tested, and the potentiation was inactive: -1.55%.
`COc1cc(OC)c(C(=O)NCC2(N(C)C)CCCCC2)cc1OC` was tested, and the potentiation was inactive: -3.95%.
In the case of `CCCOc1cccc(C(=O)NCC2(N3CCOCC3)CCCCC2)c1`, the potentiation is reported as inactive: 0.7%.
With `O=C(NCC1(N2CCCCC2)CCCCC1)c1cccc(C(F)(F)F)c1` the potentiation was inactive: -3.15%.
For `O=[N+]([O-])c1cc([N+](=O)[O-])c(NCC2CCS(=O)(=O)C2)c([N+](=O)[O-])c1` (configuration not stated), the potentiation was inactive: 2%.
For `CN1CCN(CCOC(=O)C(O)(c2ccccc2)c2ccccc2)CC1`, the potentiation was inactive: -3.55%.
In the case of `COc1ccc(NC2CCN(C(=O)OC(C)(C)C)CC2)cc1`, the potentiation is reported as inactive: -4.25%.
With `CC(C)c1ccc(C(=O)NCC2(N3CCOCC3)CCCCC2)cc1` the potentiation was inactive: -3.2%.
With `COc1cc(C(=O)NCC2(N3CCCCC3)CCCCC2)ccc1OC(F)F` the potentiation was inactive: -3.85%.
In the case of `O=C(NCC1(N2CCOCC2)CCCCC1)c1cc(=O)[nH]c2ccccc12`, the potentiation is reported as inactive: 3.81%.
With `O=C(NCC1(N2CCCCC2)CCCCC1)c1ccc(OC(F)F)cc1` the potentiation was inactive: -6.5%.
With `CSc1ccc(C(=O)NCC2(N3CCOCC3)CCCCC2)cc1` the potentiation was inactive: 0.55%.
For `CCOc1ccc(C(=O)NCC2(N3CCOCC3)CCCCC2)cc1`, the potentiation was inactive: 0.95%.
With `O=C(NCC1(N2CCCCC2)CCCCC1)c1cccc([N+](=O)[O-])c1` the potentiation was inactive: -1.55%.
For `CCN1CCC(Nc2ccc(Cl)cc2)CC1`, the potentiation was inactive: -1.5%.
For `N#CC1(Nc2ccccc2)CCN(CCc2ccccc2)CC1`, the potentiation was inactive: -3.05%.
With `c1ccc(CN2CCC(Nc3ccccc3)CC2)cc1` the potentiation was inactive: -7.65%.
`CCCN1CCC(Nc2cc(OC)cc(OC)c2)CC1` was tested, and the potentiation was inactive: -1.3%.
`O=C(NCC1(N2CCOCC2)CCCCC1)c1ccccc1` was tested, and the potentiation was inactive: 0.3%.
For `CN(C)C1(CNC(=O)c2cccc(C#N)c2)CCCCC1`, the potentiation was inactive: 1.7%.
`O=C(NCC1(N2CCOCC2)CCCCC1)c1ccc([N+](=O)[O-])cc1` was tested, and the potentiation was inactive: -0.75%.
`CC(C)(C)OC(=O)N1CCC(N(C(=O)c2ccccc2)c2ccc(Cl)cc2)CC1` was tested, and the potentiation was inactive: -1.45%.
For `N#Cc1ccc(C(=O)NCC2(N3CCCCC3)CCCCC2)cc1`, the potentiation was inactive: -7.2%.
In the case of `O=C(NCC1(N2CCOCC2)CCCCC1)c1ccccc1[N+](=O)[O-]`, the potentiation is reported as inactive: 2.55%.
In the case of `CCOC(=O)C(CC)C1=NC(C)(C)Cc2ccccc21.O=[N+]([O-])c1cc([N+](=O)[O-])c(O)c([N+](=O)[O-])c1` (configuration not stated), the potentiation is reported as inactive: -3.7%.
`N/C(=N\O)c1c(N)no[n+]1[O-]` was tested, and the potentiation was inactive: -8.4%.
In the case of `CCOC(=O)N1CCC(Nc2ccc(C)cc2)CC1`, the potentiation is reported as inactive: -5.9%.
`CCc1cc(C(=O)NCC2(N3CCCCC3)CCCCC2)sc1C` was tested, and the potentiation was inactive: -1.55%.
In the case of `O=C(OC1CN2CCC1CC2)C1c2ccccc2C=Cc2ccccc21` (configuration not stated), the potentiation is reported as inactive: -8.25%.
For `O=C(O)c1cccc(Nc2c([N+](=O)[O-])cc([N+](=O)[O-])cc2[N+](=O)[O-])c1`, the potentiation was inactive: -1.25%.
`O=C(NCC1(N2CCOCC2)CCCCC1)c1cc(Br)ccc1Cl` was tested, and the potentiation was inactive: 1.95%.
